For one compound, EC50 results are on record in paper doi:10.1101/2022.12.25.521909v1 (biorxiv, 2022).

Sequences of proteins named here, by UniProt entry; tags and fusion partners are left off.
UniProt O15439, whole entry, looked up: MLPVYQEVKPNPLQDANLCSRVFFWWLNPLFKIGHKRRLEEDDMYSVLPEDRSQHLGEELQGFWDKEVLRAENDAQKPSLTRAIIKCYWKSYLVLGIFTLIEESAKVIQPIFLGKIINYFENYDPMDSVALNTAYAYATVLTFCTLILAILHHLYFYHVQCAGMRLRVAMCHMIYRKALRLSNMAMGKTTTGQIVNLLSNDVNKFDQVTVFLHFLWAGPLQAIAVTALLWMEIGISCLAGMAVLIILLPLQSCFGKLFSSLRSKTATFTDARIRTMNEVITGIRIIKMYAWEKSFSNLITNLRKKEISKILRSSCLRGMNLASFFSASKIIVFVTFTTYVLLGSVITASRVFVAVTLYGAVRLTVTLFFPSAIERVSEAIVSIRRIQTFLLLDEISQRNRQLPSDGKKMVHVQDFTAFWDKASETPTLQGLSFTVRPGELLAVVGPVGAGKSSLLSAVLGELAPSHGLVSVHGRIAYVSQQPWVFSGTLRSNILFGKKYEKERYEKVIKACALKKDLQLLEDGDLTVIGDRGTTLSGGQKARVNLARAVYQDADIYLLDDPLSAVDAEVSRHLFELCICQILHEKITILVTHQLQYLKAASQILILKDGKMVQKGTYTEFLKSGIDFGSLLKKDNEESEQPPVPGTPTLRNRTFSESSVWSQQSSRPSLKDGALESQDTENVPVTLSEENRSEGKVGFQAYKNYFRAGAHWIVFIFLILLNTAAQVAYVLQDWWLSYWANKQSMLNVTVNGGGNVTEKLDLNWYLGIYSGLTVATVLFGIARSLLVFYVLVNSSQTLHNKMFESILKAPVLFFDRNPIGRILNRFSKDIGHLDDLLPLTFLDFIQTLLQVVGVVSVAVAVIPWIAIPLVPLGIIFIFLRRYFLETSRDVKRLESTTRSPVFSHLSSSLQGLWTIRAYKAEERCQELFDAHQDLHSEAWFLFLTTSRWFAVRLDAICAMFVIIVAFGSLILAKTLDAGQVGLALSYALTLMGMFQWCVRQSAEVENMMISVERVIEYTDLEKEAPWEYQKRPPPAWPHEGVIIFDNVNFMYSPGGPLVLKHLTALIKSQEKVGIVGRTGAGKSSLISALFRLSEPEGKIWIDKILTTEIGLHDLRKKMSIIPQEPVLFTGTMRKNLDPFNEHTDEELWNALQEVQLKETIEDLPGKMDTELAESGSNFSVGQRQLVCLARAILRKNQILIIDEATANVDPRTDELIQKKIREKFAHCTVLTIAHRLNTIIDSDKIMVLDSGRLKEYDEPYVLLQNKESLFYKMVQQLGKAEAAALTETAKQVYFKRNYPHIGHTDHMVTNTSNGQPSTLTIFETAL

The experiment deals with human ABCC4 (ABCC4/MRP4) (Homo sapiens, UniProt O15439). Briefly: stimulation of ATPase activity, ABCC4 in lipid nanodiscs, logistic fit. It counts as biochemical. Particulars: 2 mM ATP, transmembrane substrate pocket.

Each structure is given as a SMILES string.

Turning to `CCCCC[C@H](O)/C=C/[C@@H]1[C@@H](C/C=C\CCCC(=O)O)[C@H]2CO[C@@H]1C2`, the EC50 (usually the concentration at which the effect is half-maximal) came to 6.4 µM. This lies in the single-digit micromolar range.
